In PMC4157643 (Journal of pharmaceutical sciences, 2012):
Where two headings read alike, the source gives them in different places.

Conditions: vitreous humor, two-compartment model, n=4

glucosyl hesperidin [hesperidin G]
V2 (intravitreal dose 1.5 µg): 1.00 ± 0.07 mL
V2 (intravitreal dose 4.5 µg): 0.81 ± 0.05 mL
V2 (intravitreal dose 15 µg): 0.78 ± 0.16 mL
